Protein sequences, listed by entry. Tags and fused reporters are not part of them.
UniProt P13945, whole entry: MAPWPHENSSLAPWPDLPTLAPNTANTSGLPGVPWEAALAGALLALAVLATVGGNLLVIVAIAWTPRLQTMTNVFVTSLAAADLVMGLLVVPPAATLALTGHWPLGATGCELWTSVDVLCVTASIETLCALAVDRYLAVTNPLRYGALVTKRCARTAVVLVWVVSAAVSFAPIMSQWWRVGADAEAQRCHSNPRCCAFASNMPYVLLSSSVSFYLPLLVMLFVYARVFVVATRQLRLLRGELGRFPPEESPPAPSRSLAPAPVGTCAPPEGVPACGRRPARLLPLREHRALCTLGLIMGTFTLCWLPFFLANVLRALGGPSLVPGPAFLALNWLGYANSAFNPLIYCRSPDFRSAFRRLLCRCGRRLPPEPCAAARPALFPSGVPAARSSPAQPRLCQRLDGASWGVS

According to patent publication US20080064758A1, “METHOD OF TREATMENT OR PROPHYLAXIS OF DEPRESSION” (MediciNova, Inc., priority 2006, published 2008):

How the values were obtained:
β3 adrenergic receptor = β3 adrenergic receptor (Homo sapiens, UniProt P13945); test: β3 adrenergic cellular adenylyl cyclase assay (cAMP accumulation, EIA); details: read-out: EC50, agonist-like stimulation of adenylyl cyclase activity; HEK 293 cells, 20 minutes at 37° C., 1 nM to 10 μM, cAMP by EIA; estimated; tested form: maleate
Description: (§1) MN-246 was tested at full-log concentrations ranging from 1 nM to 10 μM for agonism/antagonism in the β3 adrenergic cellular adenylyl cyclase assay in HEK 293 cells and at the same concentrations for potential cytotoxicity in the corresponding β3 adrenergic cytotoxicity assay. Cells were incubated for 20 minutes at 37° C. in Hank's buffered salt solution, with 1 mM MgCl2, 1 mM CaCl2, at a pH of 7.4. Enzyme immunoassay (EIA) was used to measure cAMP accumulation. The compound MN-246 caused agonist-like stimulation of adenylyl cyclase activity with an estimated EC50 of 76 nM.

HEK 293 cells = test: β3 adrenergic cytotoxicity assay; details: 1 nM to 10 μM; tested form: maleate
Description: as §1

Compound: CCOC(=O)COc1cccc([C@@H]2CCC[C@@H](NC[C@H](O)c3cccc(Cl)c3)C2)c1 [Compound A, 3-[(1R,3R)-3-[(2R)-2-(3-chlorophenyl)-2-hydroxyethylamino]cyclohexyl]-phenoxy acetic acid ethyl ester, maleate salt]
- EC50 (β3 adrenergic receptor): 76 nM
- cytotoxicity (HEK 293 cells): No cytotoxicity was observed

Where a name gives a salt, the structure may show the parent alone.
